The text below walks through data of patent US6652890B2, “Tea catechins as cancer specific proliferation inhibitors” (Purdue Research Foundation, priority 1999, dated 2003).

Assay [1] concerns BT-20 human mammary adenocarcinoma cells. Description: Effect on intact cells in culture (growth, morphology, DAPI). The conditions noted are these: 5×10^−6 to 5×10^−5 M EGCg. Type of assay: cell-based. As for the experimental part:
BT-20 human breast adenocarcinoma cells were cultured in Eagle's minimal essential medium nonessential amino acids and Earle's balanced salts supplement with 10% fetal bovine serum. Media were renewed as for MCF-10A cells.

Assay [2] deals with HeLa (human cervical carcinoma) cells. The assay is described as above. Type of assay: cell-based. Conditions: 5×10^−6 to 5×10^−5 M EGCg.

As to (−) - epigallocatechin gallate [EGCg], the “Cell volume relative to untreated cells” value in assay [1] and in assay [2] was around 50% in each case.
